pIC50: −log10 of the molar value.
Columns and labels:
[1] = system: human lung cancer strain NCI-H441; conditions: read-out: NCI-H441 IC50; NCI-H441 cells, 4 days, CellTiter-Glo
[2] = molecular target: GDP-bound NRAS wild-type protein (Homo sapiens, UniProt P01111); assay: Binding to NRAS by surface plasmon resonance (SPR), Single Cycle Kinetics
[3] = molecular target: GDP-bound HRAS wild-type protein (Homo sapiens, UniProt P01112); assay: Binding to HRAS by surface plasmon resonance (SPR), Single Cycle Kinetics

Structure (SMILES): CC[C@H](C)[C@@H]1NC(=O)[C@H](COC)N(C)C(=O)C[C@@H](C(=O)N(C)CC)N(C)C(=O)[C@H](C2CCCC2)N(C)C(=O)C2(CC(C)(C)C2)NC(=O)[C@@H]2C[C@H](C)CN2C(=O)[C@H](CCc2ccc(C(F)(F)F)c(OC)c2)NC(=O)CN(C)C(=O)[C@H](Cc2ccc(C)cc2)N2CC/C=C\C[C@@H](C2=O)N(C)C(=O)CN(C)C1=O [PP2504]
- pIC50 [1]: 7.89

Structure (SMILES): CCO[C@@H]1C[C@H]2C(=O)NC3(CCC3)C(=O)N(C)[C@@H](C3CCCC3)C(=O)N(C)[C@H](C(=O)N(C)C)CC(=O)N(C)[C@@H](CC(C)C)C(=O)N[C@@H]([C@@H](C)CC)C(=O)N(C)CC(=O)N(C)[C@H]3CC(C)=C(C)CN(C3=O)[C@@H](Cc3ccc(C(F)(F)F)cc3)C(=O)N(C)CC(=O)N[C@@H](CCc3cc(F)c(C(F)(F)F)c(F)c3)C(=O)N2C1 [PP1046]
- NRAS/KRAS (ratio of KD value with respect to NRAS to KD value with respect to KRAS) ([2]; KD ratio, GDP-bound NRAS wild-type vs GDP-bound KRAS wild-type): C (A compound having a KD ratio of 0.1 or more and less than 3 is denoted as C)
- HRAS/KRAS (ratio of KD value with respect to HRAS to KD value with respect to KRAS) ([3]; KD ratio, GDP-bound HRAS wild-type vs GDP-bound KRAS wild-type): C (A compound having a KD ratio of 0.1 or more and less than 3 is denoted as C)
- pIC50 [1]: 6.96

Structure (SMILES): CCC[C@H]1C(=O)N[C@@H]([C@@H](C)CC)C(=O)N(C)CC(=O)N(C)[C@H]2C/C=C\CCN(C2=O)[C@@H](Cc2ccc(C)cc2)C(=O)N(C)CC(=O)N[C@@H](CCc2cc(F)c(C(F)(F)F)c(F)c2)C(=O)N2CC3(CC3)C[C@H]2C(=O)NC2(CC(C)(C)C2)C(=O)N(C)[C@@H](CC(C)C)C(=O)N(C)[C@H](C(=O)N(C)C)CC(=O)N1C [PP3004]
- NRAS/KRAS (ratio of KD value with respect to GDP-bound NRAS wild-type protein to KD value with respect to KRAS) ([2]; KD ratio NRAS/KRAS, GDP-bound wild-type proteins): A (a compound having 10 or more and less than 20 is denoted as A)
- HRAS/KRAS (ratio of KD value with respect to GDP-bound HRAS wild-type protein to KD value with respect to KRAS) ([3]; KD ratio HRAS/KRAS, GDP-bound wild-type proteins): A (a compound having 10 or more and less than 20 is denoted as A)
- pIC50 [1]: 7.72

Structure (SMILES): CCO[C@@H]1C[C@H]2C(=O)NC3(CCC3)C(=O)N(C)[C@@H](C3CCCC3)C(=O)N(C)[C@H](C(=O)N(CC)CC)CC(=O)N(C)[C@@H](CC3CC3)C(=O)N[C@@H]([C@@H](C)CC)C(=O)N(C)CC(=O)N(C)[C@H]3C/C=C\CCN(C3=O)[C@@H](Cc3ccc(C(F)(F)F)cc3)C(=O)N(C)CC(=O)N[C@@H](CCc3cc(F)c(C(F)(F)F)c(F)c3)C(=O)N2C1 [PP1307]
- NRAS/KRAS (ratio of KD value for GDP-bound NRAS wild-type protein to KD value for KRAS) ([2]; KD ratio class): A (a compound having 10 or more and less than 20 is denoted as A)
- HRAS/KRAS (ratio of KD value for GDP-bound HRAS wild-type protein to KD value for KRAS) ([3]; KD ratio class): A (a compound having 10 or more and less than 20 is denoted as A)

Source: US20250230193A1, “CYCLIC COMPOUND HAVING SELECTIVE KRAS INHIBITORY EFFECT ON HRAS AND NRAS” (CHUGAI SEIYAKU KABUSHIKI KAISHA, priority 2022, published 2025)
